# scFv variants of Ab-95 (light chain) against a SARS-CoV-2 spike peptide

Target: peptide PDVDLGDISGINAS, taken from heptad repeat 2 (HR2) of SARS-CoV-2 spike.

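The parent was found by panning a naive human phage display library on the peptide. Library AAYL52 holds single substitutions and randomly drawn double and triple substitutions in the CDRs. The assay is AlphaSeq: two haploid yeast populations carry antibody and antigen on their surface. Pairs that bind mate more often; barcode pairs of the diploids are counted by sequencing. The ratio of observed to expected reads was calibrated, replicate by replicate, on BCL2-family standards whose Kd was known from biolayer interferometry. There are three technical replicates.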

Parent scFv Ab-95: VH joined to VL by a 15-residue (Gly4Ser)3 linker. Changes lie in the light chain CDRs alone.
VH: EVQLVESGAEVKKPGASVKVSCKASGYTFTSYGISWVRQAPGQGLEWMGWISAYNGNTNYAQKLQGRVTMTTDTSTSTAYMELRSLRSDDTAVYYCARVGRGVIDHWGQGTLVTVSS
VL: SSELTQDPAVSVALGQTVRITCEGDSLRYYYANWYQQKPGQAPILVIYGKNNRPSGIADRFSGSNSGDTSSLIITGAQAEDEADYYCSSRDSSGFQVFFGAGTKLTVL

Each variant is given by its three light chain CDRs, as the data file delimits them; those of the parent are EGDSLRYYYAN, GKNNRPS, SSRDSSGFQVF. The read-out is the apparent dissociation constant on a log10 scale (nM): the lower, the stronger. The mean shown is taken over the replicates in which the pair was detected. "nd" means that the variant was in the library but no mating with the target was seen in any replicate; the authors take this as a sign of poor binding, and no number exists. Empty control strains, which show no peptide, gave a signal in 28% of pairings with library AAYL52; the median was 3.91 and 95% of these signals were weaker than 2.90. No background was subtracted. Parent in this assay: reference entry 2.31, copy in this library 2.25.

CDR-L1	CDR-L2	CDR-L3	mean, log10 nM	detected
EGDSLSYYKAN	GKNNRPS	SSQDSSGFQVF	nd	0 of 3
AGDSLRYYYAN	GPNNRPS	SSRDSFGFQVF	2.64	3 of 3
EGISLRAYYAN	GKNNRPS	SSRDSIGFQVF	4.11	1 of 3
EGDSLRYAYAN	GTNNRPF	SSRDSSGFQVF	0.97	3 of 3
EGDSLRYYMAN	GKNNRPS	SSRDSSGFAVT	1.55	3 of 3
EGDSLRYYYAN	GKNVRPS	SSRDSQGFQVL	2.38	3 of 3
EGDSLRYYYAS	GKNNRPS	SSRDSSGFSVF	4.25	2 of 3
EGDSLRYYYAN	GKNNRPS	ISNDSSGSQVF	4.33	2 of 3
EGDSLRYYYAN	GKNNRPM	SSRLSSGFQVF	2.87	3 of 3
EGDSLRYYYAN	GMNNRSS	SSRDSSGVQVF	3.87	3 of 3
EGDSLCKYYAN	GKNNRPS	LSRDSSGFQVF	3.42	3 of 3
EGDSLRYYKAN	GKNNRPS	SRRDSSGLQVF	nd	0 of 3
EGPSLRYYYAI	GKNHRPS	SSRDSSGFQVF	5.06	2 of 3
EGDSLRYYYAN	GHNNRPS	SARDSSGFQNF	2.59	3 of 3
EGDSLRYYYAN	GKNNRPE	CSRGSSGFQVF	3.09	3 of 3
EGDSLRYYYAN	GKNNRPS	SLRDSGGDQVF	nd	0 of 3
EGDQLRYQWAN	GKNNRPS	SSRDSSGFQVF	1.39	3 of 3
EMDSLRYYYAN	GKNNRQS	SSRDSSGLQVF	nd	0 of 3
EGDSLRYYYAN	GKNNDHS	SRRDSSGFQVF	3.55	3 of 3
EGDSLRWYYSN	GKNNRPS	SSRDSSGCQVF	3.73	3 of 3
YGDSLRYYYLC	GKNNRPS	SSRDSSGFQVF	nd	0 of 3
NGDSLRYYYAN	GKNNRPS	SSRDSCGFIVF	2.94	3 of 3
EGDSLRYYYIF	GKNNRPN	SSRDSSGFQVF	3.51	3 of 3
EGDSLRYKYAN	GKNNWPS	SSRHSSGFQVF	3.42	2 of 3
EGDSLIYYYAK	GKNNRPS	SSRDSSGFMVF	3.95	1 of 3
EGWSLRYYYAN	GKNNRPS	SSRDSWGFQHF	3.52	1 of 3
EGKSLRYYYAN	GKNHRPS	SSRDSSGHQVF	3.62	2 of 3
EGDSLRYYYFN	GKNNRPS	SSPDSSGFKVF	nd	0 of 3
EGDSLYYYYAN	GKTNRPS	SSRDSSYFQVF	5.30	1 of 3
EGDSLRYYKAN	RKNNRPS	SSRDSSEFQVF	nd	0 of 3
EGDSKRYYYAN	GKVNRPC	SSRDSSGFQVF	4.17	2 of 3
EGDSLRYYYAN	GKWERPS	SSTDSSGFQVF	4.61	1 of 3
EGDSLRYYYTG	GKPNRPS	SSRDSSGFQVF	4.40	2 of 3
EGDSDRYYYAN	GKNVRPS	SSRDGSGFQVF	nd	0 of 3
EGDSLRYYYAN	GKNNRRS	SSRDSDGFQVA	nd	0 of 3
EGDSLRYYYAN	GWNNRPS	SSRESSPFQVF	3.70	1 of 3
EGDSLRYYWFN	PKNNRPS	SSRDSSGFQVF	4.00	3 of 3
LGDSLRYYYAN	GKNNRCS	SSRDSSGFQVF	3.01	2 of 3
EWDQLRYYYAN	GKNNRPS	STRDSSGFQVF	3.63	2 of 3
EGDSLRYKYAN	GKDNRPP	SSRDSSGFQVF	2.24	3 of 3
EGDSLRYNYAN	GKNNRPS	SSWDSSGFQVL	2.65	3 of 3
EGDSLRYYYEN	GKNNRPS	SSHDSSGFQFF	3.70	2 of 3
EGDSLRDYYAN	GKNNRHS	SSRDSSGQQVF	3.08	3 of 3
EGDSLRYYYAN	KKNRRLS	SSRDSSGFQVF	4.67	2 of 3
EGDSLRYYKAN	GKNSRPS	SSRDSKGFQVF	nd	0 of 3
EGDSLRAYYAE	GKNNCPS	SSRDSSGFQVF	4.04	1 of 3
EGDSLRYYYAN	GKNNGPS	ISRDSSGFQVG	3.71	2 of 3
EGDSLRYYYAG	GKNNRTG	SSRDSSGFQVF	5.64	1 of 3
EGDSLRYYYAF	GKNNRPS	SSRDSSGFQLE	3.62	1 of 3
AGDDLRYYYAN	GKNNRPS	SSRDSSGPQVF	3.62	1 of 3
EGDSLRYYYAN	GKNNRPS	SSRDSSGESVF	3.69	3 of 3
SGDSLRYYYAN	GKNNRPL	SSRDSSHFQVF	2.54	3 of 3
EGDSLRQYYAN	GKNNRPS	CSRDSSGFQVF	3.23	3 of 3
EGDSLRVYYAN	GKNNRLS	SSRDSSGFQSF	4.56	2 of 3
EIDSLRYYYAN	GKNARPS	SSRDSSGFQVP	1.97	3 of 3
EGDSHRYYYAF	GKNNRPS	SSRDSSDFQVF	4.40	1 of 3
EGDSLRYEYAN	GKNNRPS	SSFDSSGTQVF	nd	0 of 3
ETDSLRDYYAN	GKNNRPH	SSRDSSGFQVF	2.92	3 of 3
EGDSLRYSYAN	GKNNRPS	SMRDSSGGQVF	1.26	3 of 3
EGDSLRYYYAN	GKNNRPS	SSGDSWGFMVF	2.65	3 of 3
EGDSALYYYAN	GKNNRPS	SSRDSSGFQVF	4.65	2 of 3
EGDSLRYYYFN	GKQNRPS	SSRDSSGFQVH	3.85	2 of 3
EGWSRRYYYAN	GKNNRPS	SSRFSSGFQVF	5.68	1 of 3
EGDSLRYYYAN	GKLNRFS	SPRDSSGFQVF	5.21	1 of 3
QGDPLRYYYAN	GKNNRPS	SSRDSSGNQVF	2.88	3 of 3
EGDQLEYYYAN	GKNNRPS	HSRDSSGFQVF	nd	0 of 3
EGVSLRYYYAN	GKNNRPS	SSRDNSGLQVF	2.57	3 of 3
EGDSLRYYYAI	GKNNRPS	SSRDKSGFQVY	nd	0 of 3
EGDSLRYYYAN	GKNNRTS	SSRDCSGFQVF	3.65	1 of 3
EGVSLRYYYAN	GKNWRPS	SSRSSSGFQVF	4.39	3 of 3
EGDSLRYYYAN	TKNNQNS	SSRDSSGFQVF	nd	0 of 3
EGDSLRYYYAN	GKNNRSS	SSRDPSGFQVF	1.96	3 of 3
EGDSLRYYYAN	GKNNRPS	DSRVSSGFFVF	nd	0 of 3
EGESLRYYYAM	GKNNRPS	SSRDSSGFQVF	5.19	2 of 3
EGDSLRYYYAN	GKNNHPE	SSRDSSDFQVF	3.55	1 of 3
EGDMLRYYYAN	PKNNRPS	SSRPSSGFQVF	3.84	1 of 3
EGDSERYYYAN	GKNNRPS	SSRDSSGFRVI	3.95	3 of 3
EGDSLRYNYAN	KKNNRPS	SSRDSSGFQVF	1.87	3 of 3
EGFSLRYFYAN	GKNNRMS	SSRDSSGFQVF	nd	0 of 3

The first 9 entries again:

CDR-L1	CDR-L2	CDR-L3	mean, log10 nM	detected
EGDSLSYYKAN	GKNNRPS	SSQDSSGFQVF	nd	0 of 3
AGDSLRYYYAN	GPNNRPS	SSRDSFGFQVF	2.64	3 of 3
EGISLRAYYAN	GKNNRPS	SSRDSIGFQVF	4.11	1 of 3
EGDSLRYAYAN	GTNNRPF	SSRDSSGFQVF	0.97	3 of 3
EGDSLRYYMAN	GKNNRPS	SSRDSSGFAVT	1.55	3 of 3
EGDSLRYYYAN	GKNVRPS	SSRDSQGFQVL	2.38	3 of 3
EGDSLRYYYAS	GKNNRPS	SSRDSSGFSVF	4.25	2 of 3
EGDSLRYYYAN	GKNNRPS	ISNDSSGSQVF	4.33	2 of 3
EGDSLRYYYAN	GKNNRPM	SSRLSSGFQVF	2.87	3 of 3

The measurements come from Engelhart et al. 2022 (doi:10.1038/s41597-022-01779-4) through the FLAb antibody collection.